Data on 2 compounds can be found in PubChem BioAssay AID2029 (NMMLSC, 2009).

Only a part is listed here, and it is no random draw. Calls of active or inactive are those of the source.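 The calls were made as follows: active = GFP response relative to DMSO above a set limit, near the screen mean plus 3 SD (cut at about 150% in these data); inconclusive = Fewer than 70 cells measured for a yeast strain; inactive = the rest.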

The nature of this experiment: modulators of CIT2-GFP expression in yeast, primary screen, S. cerevisiae, GFP fusion, multiplex flow cytometry, MLPCN library (AID 2029).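 Also: ratio of well median GFP fluorescence to mean of DMSO wells on the plate.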 As to conditions: S. cerevisiae CIT2-GFP strain, 3 h, at 10 µM, stronger effect = higher value, 100 means same as DMSO wells.
Regarding `CCC(=O)N(c1ccccc1)C1(COC)CCN(CCc2cccs2)CC1`, the GFP response vs DMSO was inactive: 96.8%.
The same measure for `CCC(=O)N(c1ccccc1)C1(COC)CCN(CCn2nnn(CC)c2=O)CC1`: inactive: 95.7%.
